According to patent US10933061B2 (Shepherd Therapeutics, Inc., priority 2017, dated 2021):

Test system: TC-32 Ewing's sarcoma cells
Assay: Chou-Talalay combination assay, Cell Titer Glo
Type: cell-based
Details: 72 hour incubation

O=P1(N(CCCl)CCCl)NCCCO1 (stereo not shown) [Cyclophosphamide]
Synergy with pyrvinium pamoate: No
